The test deals with human AML MV4-11 cells (FLT3-ITD). Briefly: Example 2 in-vitro viability and apoptosis by FACS. To be noted: BL-8040 20 μM, AC220 50 nM or their combination, 48 hrs. In kind it is cell-based.

Consider `CC(C)(C)c1cc(NC(=O)Nc2ccc(-c3cn4c(n3)sc3cc(OCCN5CCOCC5)ccc34)cc2)no1` [AC220, Quizartinib], for which the cell death was found to be 60%.
